Where two headings read alike, the source gives them in different places.
Experiments:
amylin receptors = target: T1, amylin receptors (Rattus norvegicus, UniProt P32214+Q9JJ74); test: Receptor binding assay (competition with 125I Bolton Hunter rat amylin, basal forebrain membranes)
T1 construct: This basal forebrain tissue, containing the nucleus accumbens and surrounding regions, was weighed and homogenized; from tissue; host or cells: rat basal forebrain (nucleus accumbens and surrounding regions) membranes
T1 sequence (P32214 25-516): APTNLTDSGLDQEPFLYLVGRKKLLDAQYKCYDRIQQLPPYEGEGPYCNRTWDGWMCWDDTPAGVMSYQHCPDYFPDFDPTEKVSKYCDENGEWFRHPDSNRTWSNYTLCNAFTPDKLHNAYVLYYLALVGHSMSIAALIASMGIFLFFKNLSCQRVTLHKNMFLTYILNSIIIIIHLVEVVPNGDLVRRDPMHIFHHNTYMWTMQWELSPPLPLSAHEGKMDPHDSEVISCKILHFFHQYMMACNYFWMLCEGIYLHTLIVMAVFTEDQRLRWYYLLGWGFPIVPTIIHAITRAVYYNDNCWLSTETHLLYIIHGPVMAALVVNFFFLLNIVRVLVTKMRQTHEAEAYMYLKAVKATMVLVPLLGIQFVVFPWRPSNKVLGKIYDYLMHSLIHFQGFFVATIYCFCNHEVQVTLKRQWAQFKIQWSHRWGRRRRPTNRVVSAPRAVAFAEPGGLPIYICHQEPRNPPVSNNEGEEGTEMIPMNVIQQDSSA
T1 sequence (Q9JJ74 27-148): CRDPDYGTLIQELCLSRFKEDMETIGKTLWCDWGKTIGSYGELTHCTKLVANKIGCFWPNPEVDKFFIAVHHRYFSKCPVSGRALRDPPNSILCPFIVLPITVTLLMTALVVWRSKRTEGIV

[1] = tested on: insulin-stimulated glycogen synthesis in soleus muscle; test: Soleus muscle assay; assay type: cell-based, rat; details: for EC50: rat soleus muscle, […] insulin, inhibition of glucose incorporation into glycogen

Compound	compete with amylin in the receptor binding assay (amylin receptors)	IC50 (amylin receptors; read-out: Receptor Binding)	IC50 (amylin receptors)	EC50 [1]	amylin agonist action in the soleus muscle assay [1]	antagonist activity as measured by the soleus muscle assay [1]
CC[C@H](C)[C@H](NC(=O)[C@H](C)NC(=O)CNC(=O)[C@H](Cc1ccccc1)NC(=O)[C@H](CC(N)=O)NC(=O)[C@H](CC(N)=O)NC(=O)[C@H](CO)NC(=O)[C@H](CO)NC(=O)[C@H](Cc1c[nH]cn1)NC(=O)[C@@H](NC(=O)[C@H](CC(C)C)NC(=O)[C@H](Cc1ccccc1)NC(=O)[C@H](CC(N)=O)NC(=O)[C@H](C)NC(=O)[C@H](CC(C)C)NC(=O)[C@H](CCCNC(=N)N)NC(=O)[C@H](CCC(N)=O)NC(=O)[C@@H](NC(=O)[C@H](C)NC(=O)[C@@H]1CSSC[C@H](NC(=O)[C@H](C)N)C(=O)N[C@@H](CC(N)=O)C(=O)N[C@@H]([C@@H](C)O)C(=O)N[C@@H](C)C(=O)N[C@@H]([C@@H](C)O)C(=O)N1)[C@@H](C)O)C(C)C)C(=O)N[C@@H](CC(C)C)C(=O)N[C@@H](CO)C(=O)N[C@@H](CO)C(=O)N[C@H](C(=O)N[C@@H](CC(N)=O)C(=O)N[C@H](C(=O)NCC(=O)N[C@@H](CO)C(=O)N[C@@H](CC(N)=O)C(=O)N[C@H](C(=O)N[C@@H](Cc1ccc(O)cc1)C(N)=O)[C@@H](C)O)C(C)C)[C@@H](C)O [^1Ala-h-Amylin]			0.148 nM	12.8 nM		
CC[C@H](C)[C@H](NC(=O)[C@H](C)NC(=O)CNC(=O)[C@H](Cc1ccccc1)NC(=O)[C@H](CC(N)=O)NC(=O)[C@H](CC(N)=O)NC(=O)[C@H](CO)NC(=O)[C@H](CO)NC(=O)[C@H](Cc1c[nH]cn1)NC(=O)[C@@H](NC(=O)[C@H](CC(C)C)NC(=O)[C@H](Cc1ccccc1)NC(=O)[C@H](CC(N)=O)NC(=O)[C@H](C)NC(=O)[C@H](CC(C)C)NC(=O)[C@H](CCCNC(=N)N)NC(=O)[C@H](CCC(N)=O)NC(=O)[C@@H](NC(=O)[C@H](C)NC(=O)[C@@H]1CSSC[C@H](NC(=O)[C@@H](N)CO)C(=O)N[C@@H](CC(N)=O)C(=O)N[C@@H]([C@@H](C)O)C(=O)N[C@@H](C)C(=O)N[C@@H]([C@@H](C)O)C(=O)N1)[C@@H](C)O)C(C)C)C(=O)N[C@@H](CC(C)C)C(=O)N[C@@H](CO)C(=O)N[C@@H](CO)C(=O)N[C@H](C(=O)N[C@@H](CC(N)=O)C(=O)N[C@H](C(=O)NCC(=O)N[C@@H](CO)C(=O)N[C@@H](CC(N)=O)C(=O)N[C@H](C(=O)N[C@@H](Cc1ccc(O)cc1)C(N)=O)[C@@H](C)O)C(C)C)[C@@H](C)O [^1Ser-h-Amylin]			0.033 nM	8.7 nM		
CC[C@H](C)[C@H](NC(=O)[C@H](C)NC(=O)CNC(=O)[C@H](Cc1ccccc1)NC(=O)[C@H](CC(N)=O)NC(=O)[C@H](CC(N)=O)NC(=O)[C@H](CO)NC(=O)[C@H](CO)NC(=O)[C@H](Cc1c[nH]cn1)NC(=O)[C@@H](NC(=O)[C@H](CC(C)C)NC(=O)[C@H](Cc1ccccc1)NC(=O)[C@H](CC(N)=O)NC(=O)[C@H](C)NC(=O)[C@H](CC(C)C)NC(=O)[C@H](CCCNC(=N)N)NC(=O)[C@H](CCC(N)=O)NC(=O)[C@@H](NC(=O)[C@H](C)NC(=O)[C@@H]1CSSC[C@H](NC(=O)[C@@H](N)CCCCN)C(=O)N[C@@H](CC(N)=O)C(=O)N[C@@H]([C@@H](C)O)C(=O)N[C@@H](C)C(=O)N[C@@H]([C@@H](C)O)C(=O)N1)[C@@H](C)O)C(C)C)C(=O)N[C@@H](CC(C)C)C(=O)N1CCC[C@H]1C(=O)N[C@@H](CO)C(=O)N[C@H](C(=O)N[C@@H](CC(N)=O)C(=O)N[C@H](C(=O)NCC(=O)N[C@@H](CO)C(=O)N[C@@H](CC(N)=O)C(=O)N[C@H](C(=O)N[C@@H](Cc1ccc(O)cc1)C(N)=O)[C@@H](C)O)C(C)C)[C@@H](C)O [^28Pro-h-Amylin]		0.015 nM		2.64 nM		
CC[C@H](C)[C@H](NC(=O)[C@H](C)NC(=O)CNC(=O)[C@H](Cc1ccccc1)NC(=O)[C@H](CC(N)=O)NC(=O)[C@H](CC(N)=O)NC(=O)[C@H](CO)NC(=O)[C@H](CO)NC(=O)[C@H](Cc1c[nH]cn1)NC(=O)[C@@H](NC(=O)[C@H](CC(C)C)NC(=O)[C@H](Cc1ccccc1)NC(=O)[C@H](CC(N)=O)NC(=O)[C@H](C)NC(=O)[C@H](CC(C)C)NC(=O)[C@H](CCCNC(=N)N)NC(=O)[C@H](CCC(N)=O)NC(=O)[C@@H](NC(=O)[C@H](C)NC(=O)[C@@H]1CSSC[C@H](NC(=O)[C@@H](N)CCCCN)C(=O)N[C@@H](CC(N)=O)C(=O)N[C@@H]([C@@H](C)O)C(=O)N[C@@H](C)C(=O)N[C@@H]([C@@H](C)O)C(=O)N1)[C@@H](C)O)C(C)C)C(=O)N[C@@H](CC(C)C)C(=O)N[C@@H](CO)C(=O)N1CCC[C@H]1C(=O)N[C@H](C(=O)N[C@@H](CC(N)=O)C(=O)N[C@H](C(=O)NCC(=O)N[C@@H](CO)C(=O)N[C@@H](CC(N)=O)C(=O)N[C@H](C(=O)N[C@@H](Cc1ccc(O)cc1)C(N)=O)[C@@H](C)O)C(C)C)[C@@H](C)O [^29Pro-h-Amylin]			0.064 nM	3.75 nM		

Now from value to molecule, other results behind:

compete with amylin in the receptor binding assay (amylin receptors)	IC50 (amylin receptors; read-out: Receptor Binding)	Compound	IC50 (amylin receptors)	EC50 [1]	amylin agonist action in the soleus muscle assay [1]	antagonist activity as measured by the soleus muscle assay [1]
compete with amylin	0.021 nM	CC[C@H](C)[C@H](NC(=O)[C@@H]1CCCN1C(=O)CNC(=O)[C@H](Cc1ccccc1)NC(=O)[C@H](CC(N)=O)NC(=O)[C@H](CC(N)=O)NC(=O)[C@H](CO)NC(=O)[C@H](CO)NC(=O)[C@H](CCCNC(=N)N)NC(=O)[C@@H](NC(=O)[C@H](CC(C)C)NC(=O)[C@H](Cc1ccccc1)NC(=O)[C@H](CC(N)=O)NC(=O)[C@H](C)NC(=O)[C@H](CC(C)C)NC(=O)[C@H](CCCNC(=N)N)NC(=O)[C@H](CCC(N)=O)NC(=O)[C@@H](NC(=O)[C@H](C)NC(=O)[C@@H]1CSSC[C@H](NC(=O)[C@@H](N)CCCCN)C(=O)N[C@@H](CC(N)=O)C(=O)N[C@@H]([C@@H](C)O)C(=O)N[C@@H](C)C(=O)N[C@@H]([C@@H](C)O)C(=O)N1)[C@@H](C)O)C(C)C)C(=O)N[C@@H](CC(C)C)C(=O)N1CCC[C@H]1C(=O)N1CCC[C@H]1C(=O)N[C@H](C(=O)N[C@@H](CC(N)=O)C(=O)N[C@H](C(=O)NCC(=O)N[C@@H](CO)C(=O)N[C@@H](CC(N)=O)C(=O)N[C@H](C(=O)N[C@@H](Cc1ccc(O)cc1)C(N)=O)[C@@H](C)O)C(C)C)[C@@H](C)O [^18Arg^25,28,29Pro-h-Amylin]		1.25 nM	act as amylin agonists	negligible
	0.026 nM	CC[C@H](C)[C@H](NC(=O)[C@@H]1CCCN1C(=O)CNC(=O)[C@H](Cc1ccccc1)NC(=O)[C@H](CC(N)=O)NC(=O)[C@H](CC(N)=O)NC(=O)[C@H](CO)NC(=O)[C@H](CO)NC(=O)[C@H](Cc1c[nH]cn1)NC(=O)[C@@H](NC(=O)[C@H](CC(C)C)NC(=O)[C@H](Cc1ccccc1)NC(=O)[C@H](CC(N)=O)NC(=O)[C@H](C)NC(=O)[C@H](CC(C)C)NC(=O)[C@H](CCCNC(=N)N)NC(=O)[C@H](CCC(N)=O)NC(=O)[C@@H](NC(=O)[C@H](C)NC(=O)[C@@H]1CSSC[C@H](NC(=O)[C@@H](N)CCCCN)C(=O)N[C@@H](CC(N)=O)C(=O)N[C@@H]([C@@H](C)O)C(=O)N[C@@H](C)C(=O)N[C@@H]([C@@H](C)O)C(=O)N1)[C@@H](C)O)C(C)C)C(=O)N[C@@H](CC(C)C)C(=O)N1CCC[C@H]1C(=O)N[C@@H](CO)C(=O)N[C@H](C(=O)N[C@@H](CC(N)=O)C(=O)N[C@H](C(=O)NCC(=O)N[C@@H](CO)C(=O)N[C@@H](CC(N)=O)C(=O)N[C@H](C(=O)N[C@@H](Cc1ccc(O)cc1)C(N)=O)[C@@H](C)O)C(C)C)[C@@H](C)O [^25,28Pro-h-Amylin]		13.2 nM		
